From ChEMBL document CHEMBL3808291, “Bifunctional Peptide-Based Opioid Agonist-Nociceptin Antagonist Ligands for Dual Treatment of Acute and Neuropathic Pain” (J Med Chem, 2016)

Protein sequences, listed by entry. Tags and fused reporters are not part of them.
UniProt P35372, whole entry: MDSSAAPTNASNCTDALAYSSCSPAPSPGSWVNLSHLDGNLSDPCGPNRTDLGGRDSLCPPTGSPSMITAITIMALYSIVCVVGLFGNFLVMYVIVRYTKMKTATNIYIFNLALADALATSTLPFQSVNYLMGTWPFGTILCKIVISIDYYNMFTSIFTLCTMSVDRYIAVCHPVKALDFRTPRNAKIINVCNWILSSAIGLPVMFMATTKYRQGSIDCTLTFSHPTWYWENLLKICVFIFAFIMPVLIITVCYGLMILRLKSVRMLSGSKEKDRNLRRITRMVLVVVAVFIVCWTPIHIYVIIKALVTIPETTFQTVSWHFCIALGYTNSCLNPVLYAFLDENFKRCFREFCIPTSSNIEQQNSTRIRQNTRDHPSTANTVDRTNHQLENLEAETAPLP

Target: Mu-type opioid receptor (Homo sapiens) (UniProt P35372)
Test: Agonist activity at human mu opioid receptor expressed in CHO cell membrane by [35S]GTPgammaS binding assay relative to control

`O=C1Cc2ccccc2N1C1CCN(C2CCC3CCCc4cccc2c43)CC1` (stereo unspecified) showed an Activity of less than 20%.
